# Data reported in ChEMBL document CHEMBL1159080, “Discovery of cyclicsulfonamide derivatives as 11 beta-hydroxysteroid dehydrogenase 1 inhibitors” (Bioorg Med Chem Lett, 2010).
# Chains of the proteins cited; added tags and fusions are not shown. Lines headed by an entry give the natural chain unless they say otherwise; changes in a name come on top.
# UniProt P28845: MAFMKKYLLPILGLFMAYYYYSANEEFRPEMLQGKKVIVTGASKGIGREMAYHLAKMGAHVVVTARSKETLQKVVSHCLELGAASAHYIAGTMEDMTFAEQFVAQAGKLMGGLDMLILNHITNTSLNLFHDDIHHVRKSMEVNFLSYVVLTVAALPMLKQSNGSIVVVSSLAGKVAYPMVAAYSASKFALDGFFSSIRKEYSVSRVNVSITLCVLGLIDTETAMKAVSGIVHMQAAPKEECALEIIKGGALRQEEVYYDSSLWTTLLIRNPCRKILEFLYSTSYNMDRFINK
# Target: 11-beta-hydroxysteroid dehydrogenase 1 (Homo sapiens, UniProt P28845)
# Assay: Inhibition of 11beta-HSD1 in human microsomes by HTRF cortisol assay
# Design: species or system Microsome
structure (smiles),measurement,value
CC1(C)[C@@H](OC(=O)CCC(=O)O)CC[C@]2(C)[C@H]3C(=O)C=C4[C@@H]5C[C@@](C)(C(=O)O)CC[C@]5(C)CC[C@@]4(C)[C@]3(C)CC[C@@H]12 [CARBENOXOLONE],IC50,500 nM
